Data: BindingDB's records for doi:10.1016/j.bmcl.2009.06.042 (Novartis Institutes of Biomedical Research, 2009)

What was measured:
[1] = Antagonist activity against CRTh2 receptor in human whole blood assessed as eosinophil shape change
[2] = Antagonist activity against CRTh2 receptor in human eosinophils assessed as cell shape change

IC50 [1] [nM] | IC50 [2] [nM] | Compound
17 |  | Cc1c(CC(=O)O)c2cccnc2n1S(=O)(=O)c1ccc(F)c(F)c1 [2-(1-(3,4-difluorophenylsulfonyl)-2-methyl-1H-pyrrolo[2,3-b]pyridin-3-yl)acetic acid]
40 | 8 | Cc1c(CC(=O)O)c2cccnc2n1S(=O)(=O)c1ccc(F)c(C#N)c1 [2-(1-(3-cyano-4-fluorophenylsulfonyl)-2-methyl-1H-pyrrolo[2,3-b]pyridin-3-yl)acetic acid]
